# Yeast mating assay B: variants of the scFv Ab-14

The target is the same throughout: PDVDLGDISGINAS, from the HR2 region of SARS-CoV-2 spike.

Parent scFv Ab-14: VH joined to VL by three GGGGS repeats. Changes lie in the heavy chain CDRs alone.
VH: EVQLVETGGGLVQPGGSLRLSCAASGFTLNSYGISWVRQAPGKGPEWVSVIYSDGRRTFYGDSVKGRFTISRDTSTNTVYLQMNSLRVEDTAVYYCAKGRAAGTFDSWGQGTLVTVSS
VL: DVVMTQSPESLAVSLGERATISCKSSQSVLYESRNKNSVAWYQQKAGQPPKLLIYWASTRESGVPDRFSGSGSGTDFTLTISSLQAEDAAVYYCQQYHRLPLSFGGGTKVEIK

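The parent was found by panning a naive human phage display library on the peptide. Designed CDR sequences, proposed from the first random library and measured here. Their group label is 14H_GPLM_Gen (GPLM: also part of the Gaussian process libraries; Gen: genetic algorithm; a sequence that several methods proposed may carry one label only). Affinity was read by AlphaSeq, a pooled yeast mating assay with surface-displayed partners. Binding brings cells together so that they mate, and sequencing counts the barcode pairs among the diploids. A regression on co-assayed BCL2-family reference pairs converts the normalised counts of each replicate to an apparent Kd. The assay was run in six technical replicates.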

Changes read parent residue, position, new residue, counted from the first residue of the VH shown. Scale: log10 of Kd in nM, estimated from mating counts; low values are strong binders. "nd" marks a missing value. The strain was present, yet no cells mated with the target were sequenced in that replicate, which points to weak or no binding. As a blank, each scFv also met three strains without target: over all heavy chain designs, 1% of these pairings were detected, typically at 2.08 and seldom below 0.84. The control count says in how many pairings with the empty strains this scFv gave a signal, with their mean in brackets. A sequence measured in both rounds can read differently, since the two assays cover different ranges. The authors' rule: three or more of the six replicates give a measured affinity, fewer mean a poor binder.

changes,"replicates, log10 nM",empty controls
T28S S31E R100K S107A,0.47 -0.19 -0.09 -0.25 -0.26 0.02,0/18
T28S G61Q R100K,0.93 0.26 0.36 0.47 0.82 0.47,1/18 (1.00)
T28S S31D A101T S107Q,0.29 0.69 1.26 0.85 0.15 0.83,0/18
G61I R100K A101V,1.99 1.21 nd 1.54 1.03 nd,0/18
T28D R56M A101V,-0.14 -0.14 0.06 0.02 0.04 0.16,1/18 (1.89)
T28S G61A R100Q S107L,0.05 0.25 0.00 -0.28 -0.14 0.01,1/18 (1.45)
T28S G61T R100V,0.85 0.49 0.47 0.22 1.58 0.70,0/18
S31E A101T S107A,-0.49 -0.02 -0.68 -0.61 -0.91 -0.62,1/18 (-0.19)
T28S G61D R100T,3.41 0.30 0.58 0.25 0.24 1.93,0/18
R100E A101V S107T,0.75 0.52 0.12 0.27 0.41 0.76,0/18
T28S S31D A101T S107D,0.58 0.08 nd nd nd nd,0/18
T28S G61C A101T,nd nd nd nd nd nd,0/18
S31E G61A A101Q,-0.11 0.16 0.59 0.10 0.08 0.27,0/18
T28S G61T R100Q A101T,0.44 0.15 0.19 0.39 0.12 0.36,0/18
S31E R100Q A101T S107L,0.82 1.67 1.76 0.14 0.48 0.34,0/18
T28S S31E G61S R100S,0.82 0.04 0.17 -0.21 0.02 0.26,1/18 (2.35)
S31E R100Q S107N,0.34 1.22 1.07 1.69 0.49 1.22,0/18
T28N G61A S63R R100Q,1.38 0.80 0.72 1.39 0.75 1.34,2/18 (2.00)
T28S R100V A101T,0.39 0.07 -0.26 -0.33 -0.28 -0.02,0/18
T28S G61S R100L A101T,0.23 -0.27 -0.32 -0.54 -0.47 -0.36,1/18 (1.59)
T28E G61A S63D,0.32 0.30 -0.09 0.41 0.50 0.40,1/18 (1.88)
G61A R100H,1.11 0.73 0.82 0.88 0.86 1.05,0/18
T28S N30T S53A,-0.24 -0.12 -0.59 0.02 -0.02 -0.34,0/18
T28S G61A S63W A101T,nd 0.94 nd nd nd nd,0/18
T28S G61I A101Y,nd nd 2.29 2.40 1.27 1.81,0/18
T28Q G61A A101T,0.60 0.73 0.49 0.04 0.47 0.71,1/18 (2.33)
R100W A101V S107T,1.47 1.87 0.86 0.93 0.58 1.71,0/18
T28S S31D G61I R100K,1.81 1.22 0.27 0.31 2.10 0.61,0/18
T28S G61A R100V A101T,-0.49 0.36 0.02 -0.06 0.88 0.09,0/18
T28W S31E G61D A101T,0.61 0.59 0.15 0.18 0.56 0.68,1/18 (2.49)
T28G G61I R100Q,1.79 1.68 1.87 nd 1.65 3.48,0/18
T28S S53A R100Q,-0.21 -0.25 -0.27 0.02 -0.50 -0.25,0/18
T28S G61S S63A A101T,0.18 -0.19 0.01 0.41 -0.17 -0.01,0/18
S31E R100Q S107F,-0.17 0.48 nd nd nd 0.55,0/18
T28S S31E S63A,-0.33 -0.73 -0.40 -0.79 -0.24 -0.55,0/18
T28N G61V A101T,1.62 2.36 nd 2.23 2.49 1.72,0/18
T28S S31E S107D,0.25 0.10 0.52 -0.29 0.00 -0.09,0/18
R100Q S107L,nd nd nd nd 1.34 nd,0/18
T28S S31E G61A A101M,nd nd nd nd nd nd,0/18
T28S S31T G61A,-0.85 0.09 -0.36 -1.66 -0.35 nd,0/18
T28S G61A R100K S107N,0.44 0.97 0.11 0.95 0.49 1.21,0/18
T28D G61T,0.88 1.02 0.44 0.36 0.83 0.97,1/18 (2.37)
T28S G61A R100K A101T S107T,-0.33 -1.20 -0.04 -0.82 0.76 -1.07,0/18
T28S S31D A101Q S107A,-0.65 -1.04 -0.94 -0.11 nd -0.47,1/18 (0.04)
T28S F59Y R100K,0.69 0.90 0.43 0.67 0.73 0.57,0/18

The first 6 entries again:

changes,"replicates, log10 nM",empty controls
T28S S31E R100K S107A,0.47 -0.19 -0.09 -0.25 -0.26 0.02,0/18
T28S G61Q R100K,0.93 0.26 0.36 0.47 0.82 0.47,1/18 (1.00)
T28S S31D A101T S107Q,0.29 0.69 1.26 0.85 0.15 0.83,0/18
G61I R100K A101V,1.99 1.21 nd 1.54 1.03 nd,0/18
T28D R56M A101V,-0.14 -0.14 0.06 0.02 0.04 0.16,1/18 (1.89)
T28S G61A R100Q S107L,0.05 0.25 0.00 -0.28 -0.14 0.01,1/18 (1.45)

From the AlphaSeq antibody data of Li et al. 2023 (doi:10.1038/s41467-023-39022-2), copy in the FLAb collection.